The record followed here is publication PMC7788105 (iScience, 2020).

By UniProt entry, the sequences of proteins in these tests, tags left out. Residues count along the entry.
UniProt Q15116, 25-170: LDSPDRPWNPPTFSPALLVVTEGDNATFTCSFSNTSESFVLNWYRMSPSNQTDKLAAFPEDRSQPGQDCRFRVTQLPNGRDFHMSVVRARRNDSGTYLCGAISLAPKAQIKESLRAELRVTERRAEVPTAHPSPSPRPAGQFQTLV

Usually Kd stands for the equilibrium constant for the complex coming apart. A lower Kd goes with higher affinity.

For this assay, the target named is T1, human PD-1 (programmed cell death receptor 1) (human, UniProt Q15116 25-170, 15N-labeled in the AIDA-NMR assay; covalently labeled with a fluorophore in the MST assay).
T1 construct: Programmed cell death receptor 1 (PD-1, CD279), human; In the cell-based ICB assays hPD-1 stands on Jurkat effector cells; also called hPD-1; CD279
The experiment in a line: MST; hPD-1 covalently labeled with a fluorophore, incubated with increasing concentrations of unlabeled hPD-L1 or mPD-L1; two independent dilution series, KD model. The conditions noted are these: both partners purified.

B1: human PD-L1 (ligand)
chain: FTVTVPKDLYVVEYGSNMTIECKFPVEKQLDLAALIVYWEMEDKNIIQFVHGEEDLKVQHSSYRQRARLLKDQLSLGNAALQITDVKLQDAGVYRCMISYGGADYKRITVKVNAPY
modifications: fluorescently labeled in the MST assay with antibodies
notes: PD-L1 (CD274, B7-H1), human; In the h/hICB assay hPD-L1 stands on CHO/TCRAct/PD-L1 cells; also called hPD-L1; CD274
The molecule B1 yielded a Kd of 11.9 ± 2.8 µM.
